Assay results taken from ChEMBL document CHEMBL1138533 (Antimicrob Agents Chemother, 2007).

Experiment: Drug concentration in beta lactamase-negative Haemophilus influenzae pharmacokinetic simulation model dosed as amoxicillin-clavulanic acid at simulated human serum concentration of 2000/125 mg, po bid after 3 hrs
Assay type: ADME, organism-based
Conditions: in vivo

Drug uptake: 12.5 µg/mL
Structure (SMILES): CC1(C)S[C@@H]2[C@H](NC(=O)[C@H](N)c3ccc(O)cc3)C(=O)N2[C@H]1C(=O)O [AMOXICILLIN]
